Measured values as given in PubChem BioAssay AID652106 (National Center for Advancing Translational Sciences (NCATS), 2013).
Values joined by “and” are separate entries in the source; they are usually repeats but may differ in a detail not shown here. Equal values may be shown once. The entries are a selection whose mix differs from that of the whole data set. Active and inactive are the calls of the source. The call rests on the fitted dose curve; in most records, active means well fitted activation curve with a large enough effect; inconclusive means small, poorly fitted or top-dose-only effect; inactive means no such curve, though single readings can be large or run the other way.

Assay: qHTS of alpha-syn Inhibitors; further: % of control where 0% means no effect; nearly all actives have a fitted effect of over 65% in size
Conditions: Yeast expressing alpha-synuclein, BacTiter-Glo, 24 h; at 46.1 µM (top of the series)
Text: The goal of this project is to identify new chemical probes capable of reversing the toxicity associated with the Parkinson disease-related protein, alpha-synuclein. Compounds will be selected on their ability to restore growth in yeast cells expressing toxic levels of alpha-synuclein. These compounds will provide a complementary approach to deciphering the tangled mechanisms of toxicity and protection that we have uncovered through genome-wide genetic screens and are beginning to uncover in a large-scale proteomics analysis with mass spectroscopy. To this end, a miniaturized assay was developed to be screened against the Molecular Libraries Small Molecule Repository (MLSMR) to discover alpha-synuclein inhibitors. Please note that in the set-up this yeast-based assay compounds that inhibit as alpha-syn, have a read-out as activators. NIH Chemical Genomics Center [NCGC] NIH Molecular Libraries Probe Centers Network [MLPCN] MLPCN Grant: NS060957 Assay Submitter (PI): Susan Lindquist, Whitehead Institute/MIT
Dispense 2.5 microL yeast galactose medium per 1536-well plate, pin compound, dispense 2.5 microL alpha-synuclein expressing yeast in galactose medium at OD600=0.02 (pregrown in raffinose medium to mid-log phase) per well, incubate for 24 hr at 30 deg C, and cell growth will be measured using 5 microL of Bactiter/Glo reagent to entire plate and read using Luminescence Protocol in ViewLux.

SMILES | growth rescue (activation)
CS(=O)(=O)c1cc([N+](=O)[O-])c2no[n+]([O-])c2c1 | inactive: 6.11%
O=P(Nc1nccs1)(c1ccccc1)c1nc2ccccc2s1 (stereo not drawn) | inactive: -79.6%
O=P(Nc1nccs1)(Oc1ccccc1)Oc1ccccc1 | inactive: -0.359%
CCOP1(=S)c2c(C)nn(CCC#N)c2N=C(c2ccccc2F)N1C (stereo not drawn) | inactive: 4.36%
O=C(O)COc1ccc([As](=O)(O)O)cc1[N+](=O)[O-] | inactive: -5.99%
Nc1ccccc1[As](=O)(O)c1ccccc1 | inactive: -0.286%
NC(=O)Nc1ccc([As](=O)(O)O)cc1 | inactive: -6.28%
CN(C(=O)Cc1ccc(Cl)c(Cl)c1)[C@H]1CC[C@@]2(CCCO2)C[C@@H]1N1CCCC1 | inactive: 0.0229%
O=[N+]([O-])c1ccc2c(c1)nnn2O | inactive: -34.8%
CN(C(=O)Cc1ccccc1)[C@@H]1CC[C@]2(CCCO2)C[C@H]1N1CCCC1 | inactive: -2.35% and inactive: 1.47%
CCOP1(=S)c2c(C)nn(CCC#N)c2N=C(c2ccc(F)cc2)N1C (stereo not drawn) | inactive: -6.55%
N#CCCN(C(=O)COC(=O)C(O)(c1ccccc1)c1ccccc1)c1ccc(F)cc1 | inactive: 0.686%
CS(=O)(=O)c1ccc(Cl)c(NC(=O)COC(=O)C(O)(c2ccccc2)c2ccccc2)c1 | inactive: 8.95%
COc1cc(C(=O)NCC2(N3CCOCC3)CCCCC2)cc(Cl)c1OC(C)C | inactive: -5.77%
O=[As](O)(O)c1cccnc1 | inactive: 6.79%
CN(C(=O)Cc1ccc(Cl)c(Cl)c1)[C@@H]1CC[C@]2(CCCO2)C[C@H]1N1CCCC1 | inactive: 5.56%
O=C(OC1CN2CCC1CC2)c1ccc(Cl)cc1 (stereo not drawn) | inactive: 3.73%
O=[As](O)(c1cccc(O)c1)c1cccc(O)c1 | inactive: 1.58%
Cc1cccc(OCC(=O)OC2CN3CCC2CC3)c1 (stereo not drawn) | inactive: 6.73%
CCCOP(=S)(Nc1nc(N)cc(=O)[nH]1)OCCC | inactive: -0.346%
Nc1cccc2c([As](=O)(O)O)cccc12 | inactive: -4.17%

SMILES | growth rescue (activation)
Cc1ccc(NCCc2c([N+](=O)[O-])cc([N+](=O)[O-])cc2[N+](=O)[O-])cc1 | inactive: 4.03%
CCOP(=O)(Nc1cccc2ccccc12)OCC | inactive: 10.7%
COc1cc(C2NCCC3(OCCO3)C2(C)C)cc(OC)c1OC (stereo not drawn) | inactive: 0.977%
CN(CCCl)Cc1cc(Cl)c(NC2=NCCN2)c(Cl)c1 | inactive: -0.18% and inactive: 0.475%
CCOP(=O)(Nc1ccc(C)cn1)OCC | inactive: -3.29%
CCOP(=O)(NC(=NC(C)c1ccccc1)NC(C)c1ccccc1)OCC (stereo not drawn) | inactive: 4.78%
CCC1=CC2Cc3nc4ccc(Cl)cc4c(N)c3C(C1)C2 (stereo not drawn) | inactive: 0.117%
O=P1(Nc2ccccn2)COc2ccccc2OC1 | inactive: 5.28%
CC(C)(C)C(=O)NC(Sc1ncccn1)C(Cl)(Cl)Cl (stereo not drawn) | inactive: 10.1%
O=P1(N(CCCl)CCCl)NCCC(C(F)(F)F)O1 (stereo not drawn) | inactive: 1.41%
COc1ccccc1CNC(=O)COC(=O)C(O)(c1ccccc1)c1ccccc1 | inactive: -7.07%
CC1(CBr)Cn2c(nc3ccccc3c2=O)S1 (stereo not drawn) | inactive: -0.388%
CN(C(=O)Cc1ccc(Cl)c(Cl)c1)[C@@H]1CCCC[C@H]1N1CCCC1 | inactive: 0.586%
CC(C)/C=N\N=C(\N)N[N+](=O)[O-] | inactive: -5.12%
COc1cc([N+](=O)[O-])ccc1[N+](=O)[O-] | inactive: 5.92%
Cc1ccc(C(=O)OC2CN3CCC2CC3)cc1 (stereo not drawn) | inactive: 2.41%
CC1CCC(C(C)C)C(OP(=O)(Nc2ccccn2)c2ccccc2)C1 (stereo not drawn) | inactive: -0.781%
Cc1nn(-c2ccccc2)c2c1P(=O)(N1CCOCC1)N(C)C(c1ccccc1)=N2 (stereo not drawn) | inactive: 2.01%
CCCC1OP(=O)(Nc2ccccc2)OCC1CC (stereo not drawn) | inactive: -7.78%
O=C(/C=C/c1ccccc1)OC1CN2CCC1CC2 (stereo not drawn) | inactive: -8.23%
CN(C)C1(CNC(=O)c2ccc(S(C)(=O)=O)cc2)CCCCC1 | inactive: -1.42%

SMILES | growth rescue (activation)
O=P1(Nc2ncccn2)COc2ccccc2OC1 | inactive: -0.923%
Cc1ccc(S(=O)(=O)N(CCCN)CCCc2c(C)nc(N)[nH]c2=O)cc1 | inactive: 0.616%
NS(=O)(=O)c1cccc(NC(=O)COC(=O)C(O)(c2ccccc2)c2ccccc2)c1 | inactive: -10.8%
O=P1(Nc2ccc(Br)cn2)COc2ccccc2OC1 | inactive: 9.41%
O=[As](O)(c1cccs1)c1cccs1 | inactive: -11.1%
Cc1ccc(OCC(=O)OC2CN3CCC2CC3)cc1 (stereo not drawn) | inactive: -2.64%
Nc1cccc([As](=O)(O)c2ccccc2)c1 | inactive: 3.16%
CC1CCNP(=O)(N(CCCl)CCCl)O1 (stereo not drawn) | inactive: -8.23%
O=C(O)C(O)c1ccc(N(CCCl)CCCl)cc1 (stereo not drawn) | inactive: 2.29%
CCOC(=O)Nc1ccc([As](=O)(O)O)c(O)c1 | inactive: -8.96%
Cc1cc(SC(NC(=O)c2ccccc2)C(Cl)(Cl)Cl)nc(C(C)C)n1 (stereo not drawn) | inactive: 1.03%
CCCCOc1ccc(C(=O)NCC2(N3CCCCC3)CCCCC2)cc1OC | inactive: 0.812%
COP(=O)(OC)N1CC1c1ccccc1 (stereo not drawn) | inactive: 0.211%
CCOC(=O)Nc1cccc([As](=O)(O)O)c1 | inactive: -2.47%
O=[N+]([O-])c1ccc(Nc2ccc(Oc3ccc([N+](=O)[O-])cc3[N+](=O)[O-])cc2)c([N+](=O)[O-])c1 | inactive: -6.1%
Cc1cc(SC(NC=O)C(Cl)(Cl)Cl)ncn1 (stereo not drawn) | inactive: 0.28%
O=P(Nc1ccccn1)(c1cccc2ccccc12)c1cccc2ccccc12 | inactive: 1.5%
COC(=O)C1(C)COP(=O)(N2CCCC2)OC1 (stereo not drawn) | inactive: -4.08%
COP1(=S)c2c(C)nn(CCC#N)c2N=C(c2ccc(F)cc2)N1C (stereo not drawn) | inactive: 4.24%
O=C(Nc1ccncc1[N+](=O)[O-])c1ccc([N+](=O)[O-])cc1[N+](=O)[O-] | inactive: 0.903%
O=C(COc1ccccc1)OC1CN2CCC1CC2 (stereo not drawn) | inactive: -1.14%
